Key:
Assay type in all cases: binding
HLA-DRB1*01:01 tetramer = HLA-DRB1*01:01 tetramer (Homo sapiens, UniProt P01903+P01911, A100R/D57E/F55L/F60I/F76Y/I96L/L162R/M171V/P40L/Q125E/R42F/V115G/Y59C)
HLA-DRB1*04:01 monomer = target: T1, HLA-DRB1*04:01 monomer (Homo sapiens, UniProt P01903+P01911, A100K/A169T/F76Y/I96L/K127E/L162R/M171V/N62H/P40V/Q125Y/R42H/S133A/S149N/S66Y/V115G/V209L/W38E)
T1 construct: the extracellular domain of the MHC class II α chain and β chain to which leucine zipper motifs are added; leucine zipper motif

HLA-DRB1*03:01 monomer = target: T2, HLA-DRB1*03:01 monomer (Homo sapiens, UniProt P01903+P01911, A100K/A102G/A103R/A169T/F55Y/I96L/K41T/L162R/M171V/P40S/Q125H/Q178H/Q39Y/R42S/S66N/T106N/T262R/W38E/Y61H)
T2 construct: the extracellular domain of the MHC class II α chain and β chain to which leucine zipper motifs are added; leucine zipper motif

CC[C@H](C)[C@H](NC(=O)[C@H](CCCNC(=N)N)NC(=O)[C@@H](NC(=O)[C@H](CC(C)C)NC(=O)[C@H](CC(C)C)NC(=O)[C@H](Cc1ccccc1)NC(=O)[C@H](Cc1ccccc1)NC(=O)CNC(=O)[C@H](C)N)[C@@H](C)O)C(=O)N[C@@H](CC(C)C)C(=O)N[C@H](C(=O)N[C@H](C(=O)N1CCC[C@H]1C(=O)N[C@@H](CCC(N)=O)C(=O)N[C@@H](CO)C(=O)O)[C@@H](C)CC)[C@@H](C)O
% pept exch (HLA-DRB1*01:01 tetramer): 88.7% | % pept exch (HLA-DRB1*04:01 monomer): 78.22% | % pept exch (HLA-DRB1*03:01 monomer): 83.59%

From patent US20220177542A1 (priority 2020, published 2022)
